In patent publication US5670479A, “α-ketoamide derivatives as inhibitors of thrombosis” (Corvas International, Inc., priority 1994, dated 1997):

System: Male Harlan Sprague Dawley rats
Experiment: Venous stasis model in rats
Assay type: in vivo
Details: rat, summary in words

CCCC(CCC)C(=O)N[C@@H](CC(=O)O)C(=O)N1CCC[C@H]1C(=O)N[C@@H](CCCNC(=N)N)C(=O)C(=O)NCC(=O)NCC(=O)NCC(=O)NCC(=O)NCC(=O)N[C@@H](CC(N)=O)C(=O)NCC(=O)N[C@@H](CC(=O)O)C(=O)N[C@@H](Cc1ccccc1)C(=O)N[C@@H](CCC(=O)O)C(=O)N[C@@H](CCC(=O)O)C(=O)N[C@H](C(=O)N1CCC[C@H]1C(=O)N[C@@H](CCC(=O)O)C(=O)N[C@@H](Cc1ccc(O)cc1)C(=O)N[C@@H](CC(C)C)C(=O)O)[C@@H](C)CC
effect on venous thrombus formation induced by stasis and thromboplastin: very efficacious in dose-dependently preventing venous thrombus formation
